These results are taken from patent US8703910B2 (priority 2008, dated 2014).

This assay relates to House fly (Musca domestica). The settings on record: in vivo.

Where “and” joins values, the source holds several entries; their conditions need not be identical. Equal entries are not always repeated.

Regarding bovine serum albumin [BSA Protein], the “Dead (Time post treatment)” value is 1(?) (~7 hr) and 1 (~18 hr) and 1 (~26 hr).
